For the data set the following is noted: individual subjects; single 0.6 mg colchicine, plasma; A Day 1, A + B Day 18.

The structures appear in SMILES notation. “And” between values parts separate entries of the source, which are not always exact repeats. Equal entries are not always repeated.

Usually Cmax stands for the highest concentration seen after dosing.

With `COc1cc2c(c(OC)c1OC)-c1ccc(OC)c(=O)cc1[C@@H](NC(C)=O)CC2` [Treatment A, (−)-N-[(7S, 12aS)-1,2,3,10-tetramethoxy-9-oxo-5,6,7,9-tetrahydrobenzo[a]heptalen-7-yl]-acetamide], the Cmax was 1.748 ng/mL and 1.968 ng/mL and 1.812 ng/mL and 2.994 ng/mL.

The record behind these values is patent US20110046228A1 (priority 2009, published 2011).
